Test results reported in patent US8932842B2, “Aminopyridine dimer compounds, compositions and related methods for neuronal nitric oxide synthase inhibition” (Northwestern University, priority 2009, dated 2015).

How the values were obtained:
rat nNOS = biological target: T1, rat nNOS (Rattus norvegicus, UniProt P29476); assay: NOS enzyme assay (hemoglobin capture), nNOS; format: biochemical
T1 construct: made in house; host or cells: E. coli

[1] = biological target: T2, nNOS in 293T cells overexpressing nNOS (293T/nNOS cells) (Rattus norvegicus, UniProt P29476); assay: Cell-based assay: inhibition of nNOS in 293T/nNOS cells, nitrite by Griess reagent; conditions: A23187 (5 μM), eight hours, nitrite in culture media
T2 construct: expressed in transfected cells; host or cells: 293T cells (293T/nNOS)
Procedure: FIG. 4. Inhibition of nNOS in 293T cells overexpressing nNOS (293T/nNOS cells). 293T/nNOS cells were treated with A23187 (5 μM) and various concentrations of inhibitors 2 and 3g-3k. After eight hours, the amount of nitrite in culture media was quantified with the Griess reagent. Each data point is an average of two independent experiments.

Compound | activity/potency for nNOS in words (rat nNOS; purified enzyme assay) | n/e (rat nNOS; ratio of Ki (eNOS) to Ki (nNOS), Tables 1-3) | n/i (rat nNOS; ratio of Ki (iNOS) to Ki (nNOS), Tables 1-3) | Ki (rat nNOS; rat nNOS, Ki calculated from directly measured IC50 values) [nM] | IC50 [1] [nM]
Cc1cc(N)nc(CCc2cccc(CCc3cc(C)cc(N)n3)c2)c1 [3g, 6,6′-(2,2′-(1,3-Phenylene)bis(ethane-2,1-diyl))bis(4-methylpyridin-2-amine)] | highly potent | 28.8 | 13.9 | – | –
Cc1cc(N)nc(CCc2cncc(CCc3cc(C)cc(N)n3)c2)c1 [3j, 6,6′-(2,2′-(Pyridine-3,5-diyl)bis(ethane-2,1-diyl))bis(4-methylpyridin-2-amine)] | – | – | – | 28 | 5000
